This note sets out measurements from patent publication US20090197852A9 (priority 2001, published 2009).

The nature of this series: Trastuzumab concentration PK (ELISA) in trial of 17-AAG with trastuzumab. On the technique in general: An ELISA detects its analyte on a solid surface through an enzyme-linked reagent.

For the substance trastuzumab, under “cohorts 1 to 3 (225, 300, 375 mg/m^2 17-AAG)”, the “effect of the dose level of 17-AAG on the PK of trastuzumab” value is recorded as “did not affect the PK of trastuzumab”. Moreover, the AUCtotal (overall, trastuzumab 4 mg/kg loading dose over 90 min, first infusion) was 12,947±3,442 μg/m*h.
